# scFv variants of Ab-95 (light chain) against a SARS-CoV-2 spike peptide

Target: peptide PDVDLGDISGINAS, taken from heptad repeat 2 (HR2) of SARS-CoV-2 spike.

The variants keep the heavy chain, the linker and the frameworks of Ab-95 (scFv order VH, three GGGGS repeats, VL).
VH: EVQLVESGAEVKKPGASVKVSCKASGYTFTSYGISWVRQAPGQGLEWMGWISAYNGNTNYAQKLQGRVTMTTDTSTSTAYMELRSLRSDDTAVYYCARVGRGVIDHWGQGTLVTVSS
VL: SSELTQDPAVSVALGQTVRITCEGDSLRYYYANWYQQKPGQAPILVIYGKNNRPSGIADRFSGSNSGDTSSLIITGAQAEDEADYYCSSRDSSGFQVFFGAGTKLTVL

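The starting antibody came from a phage panning campaign against this peptide. Library AAYL52 holds single substitutions and randomly drawn double and triple substitutions in the CDRs. Affinity was read by AlphaSeq, a pooled yeast mating assay with surface-displayed partners. Pairs that bind mate more often; barcode pairs of the diploids are counted by sequencing. A regression on co-assayed BCL2-family reference pairs converts the normalised counts of each replicate to an apparent Kd. The assay was run in three technical replicates.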

Substitutions are numbered in sequence along the VL above, starting at 1 (not Kabat). All variants listed here change Y31 of the VL, counted from its first residue. The Kd shown is the geometric mean over detected replicates; a lower Kd is a better binder. "nd" means that the variant was in the library but no mating with the target was seen in any replicate; the authors take this as a sign of poor binding, and no number exists. Empty control strains, which show no peptide, gave a signal in 28% of pairings with library AAYL52; the median was 8.2 µM and 95% of these signals were weaker than 800 nM. No background was subtracted. The control count says in how many pairings with the empty strains this scFv gave a signal. Parent in this assay: reference entry 200 nM, copy in this library 180 nM.

Y31K K50E D91V: 20 nM (3 of 3 replicates; controls 5 of 9).
Y31L N52R S55E: 380 nM (3 of 3 replicates; controls 2 of 9).
L27E Y31E S92K: 770 nM (3 of 3 replicates; controls 1 of 9).
Y31T R53F S92N: 1.7 µM (2 of 3 replicates; controls 2 of 9).
D25R Y31V S92Q: 660 nM (3 of 3 replicates; controls 4 of 9).
Y31E R90I V97Y: 87 nM (3 of 3 replicates; controls 4 of 9).
E23C Y31Q Q96V: 180 nM (3 of 3 replicates; controls 0 of 9).
Y31S N33K S88M: 190 nM (3 of 3 replicates; controls 2 of 9).
Y29A Y31P G94K: 2.0 µM (2 of 3 replicates; controls 3 of 9).
Y31H N33T S88Y: 6.7 µM (3 of 3 replicates; controls 5 of 9).
S26K Y31D N52G: 59 nM (3 of 3 replicates; controls 1 of 9).
S26P Y31R: 430 nM (3 of 3 replicates; controls 2 of 9).
L27M R28L Y31T: 490 nM (3 of 3 replicates; controls 1 of 9).
R28G Y29P Y31W: 1.4 µM (3 of 3 replicates; controls 3 of 9).
Y31D N33H N52P: 370 nM (2 of 3 replicates; controls 4 of 9).
Y31N G49A N52H: 670 nM (3 of 3 replicates; controls 2 of 9).
E23A Y30H Y31N: 12 nM (3 of 3 replicates; controls 1 of 9).
Y29M Y31V K50P: 7.8 µM (2 of 3 replicates; controls 5 of 9).
Y31W N33Q: 5.6 µM (2 of 3 replicates; controls 2 of 9).
Y31K R90S S93K: 4.1 µM (1 of 3 replicates; controls 5 of 9).
E23H Y31I S55D: 160 nM (3 of 3 replicates; controls 0 of 9).
Y31M N52R V97R: 420 µM (1 of 3 replicates; controls 1 of 9).
Y31S K50S R53N: 49 nM (3 of 3 replicates; controls 3 of 9).
L27D Y31V N33W: 63 nM (3 of 3 replicates; controls 3 of 9).
Y30F Y31H R53A: 1.9 µM (3 of 3 replicates; controls 2 of 9).
Y31S N51G V97P: 15 µM (2 of 3 replicates; controls 2 of 9).
Y31A S93A: 38 nM (3 of 3 replicates; controls 1 of 9).
E23H Y31L N33Q: 1.7 µM (1 of 3 replicates; controls 1 of 9).
Y30Q Y31N F98W: 3.8 nM (3 of 3 replicates; controls 6 of 9).
D25F L27R Y31S: 2.6 µM (3 of 3 replicates; controls 4 of 9).
Y30W Y31W S93T: 1.0 µM (3 of 3 replicates; controls 5 of 9).
Y31K A32L D91W: 8.4 µM (2 of 3 replicates; controls 5 of 9).
Y31I D91H S93I: 38 µM (2 of 3 replicates; controls 1 of 9).
S26L Y31G N52I: 430 nM (3 of 3 replicates; controls 6 of 9).
Y31P G49L S88Q: 5.2 µM (3 of 3 replicates; controls 1 of 9).
R28G Y31G A32Y: 10 nM (3 of 3 replicates; controls 4 of 9).
Y30A Y31G S89M: 27 nM (3 of 3 replicates; controls 2 of 9).
G24D S26P Y31H: 84 µM (1 of 3 replicates; controls 4 of 9).
Y31L R53W G94W: 86 µM (2 of 3 replicates; controls 2 of 9).
Y31D K50D S55K: 12 nM (3 of 3 replicates; controls 3 of 9).
Y31L N33C S55W: 63 µM (2 of 3 replicates; controls 5 of 9).
Y31W N52Y R53E: 2.3 µM (2 of 3 replicates; controls 4 of 9).
Y31G S55T F95Y: 79 nM (3 of 3 replicates; controls 4 of 9).
Y31K S55D R90I: 170 nM (3 of 3 replicates; controls 0 of 9).
Y31K N51F S88L: nd (0 of 3 replicates; controls 1 of 9).
Y31H G49W: 4.8 µM (2 of 3 replicates; controls 4 of 9).
Y31F R90H Q96D: 970 nM (1 of 3 replicates; controls 2 of 9).
Y31Q S92Y S93M: 15 nM (3 of 3 replicates; controls 1 of 9).
Y30A Y31K N33W: 2.6 µM (3 of 3 replicates; controls 4 of 9).
Y31P S55L S89Y: 7.5 nM (3 of 3 replicates; controls 1 of 9).
Y31E S89F F98R: 21 nM (3 of 3 replicates; controls 1 of 9).
L27S Y31I R90V: 57 µM (2 of 3 replicates; controls 5 of 9).

The first 3 entries again:

changes	Kd	detected	empty controls
Y31K K50E D91V	20 nM	3 of 3	5 of 9
Y31L N52R S55E	380 nM	3 of 3	2 of 9
L27E Y31E S92K	770 nM	3 of 3	1 of 9

Reference: Engelhart et al. 2022, doi:10.1038/s41597-022-01779-4. File: FLAb, binding data.